These are literature values, as cited in publication PMC6398608 (Nature medicine, 2018).

By UniProt entry, the sequences of proteins in these tests, tags left out. Residues count along the entry.
UniProt P01589, 22-240, chain 1 of 3: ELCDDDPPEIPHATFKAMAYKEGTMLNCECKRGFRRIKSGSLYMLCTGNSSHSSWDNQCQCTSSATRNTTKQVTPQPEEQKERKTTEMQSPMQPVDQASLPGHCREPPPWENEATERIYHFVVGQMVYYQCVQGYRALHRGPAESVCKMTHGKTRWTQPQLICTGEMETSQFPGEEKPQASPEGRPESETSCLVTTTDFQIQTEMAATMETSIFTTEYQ
UniProt P60568, 21-153: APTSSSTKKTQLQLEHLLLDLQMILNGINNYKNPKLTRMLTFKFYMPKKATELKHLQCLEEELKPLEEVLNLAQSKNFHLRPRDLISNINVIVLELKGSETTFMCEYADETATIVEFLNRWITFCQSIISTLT

This series deals with IL-2 receptor alpha/beta/gamma (Homo sapiens) (UniProt P01589). The note with it: cited from earlier work.

For the substance IL-2 (from UniProt P60568), the Kd (usually the constant that tells how readily two partners part at equilibrium) was 0.01 nM.
